Measured values published in ChEMBL document CHEMBL1145173, “Stereoselective synthesis of [L-Arg-L/D-3-(2-naphthyl)alanine]-type (E)-alkene dipeptide isosteres and its application to the synthesis and biological evaluation of pseudopeptide analogues of the CXCR4 antagonist FC131” (J Med Chem, 2005).

Amino acid sequences for entries named in this document (tags omitted).
UniProt P61073, whole entry: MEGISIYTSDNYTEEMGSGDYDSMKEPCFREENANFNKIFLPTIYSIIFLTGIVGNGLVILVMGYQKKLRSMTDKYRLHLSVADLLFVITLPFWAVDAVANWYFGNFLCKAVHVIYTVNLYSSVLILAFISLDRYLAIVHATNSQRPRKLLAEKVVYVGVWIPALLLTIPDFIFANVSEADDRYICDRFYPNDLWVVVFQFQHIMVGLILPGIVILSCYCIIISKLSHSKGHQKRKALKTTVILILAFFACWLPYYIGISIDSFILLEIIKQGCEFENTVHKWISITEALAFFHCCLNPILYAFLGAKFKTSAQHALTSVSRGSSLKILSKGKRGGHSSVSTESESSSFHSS

Molecular target: C-X-C chemokine receptor type 4 (Homo sapiens, UniProt P61073)
Experiment: Inhibition of [125I]SDF-1 binding to C-X-C chemokine receptor type 4 expressed in CHO cells
Format: cell-based
Outline: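 Stably transfected CXCR4 CHO cells, trypsin/EDTA harvested, recovered 4–5 h in MEM-α growth medium, washed in cold PBS with 2 mg/mL BSA; 1×10^7 cells/mL incubated with 0.1 nM [125I]-SDF-1 plus compound 2 h on ice with agitation; bound/free split by oil-cushion centrifugation, gamma counting; IC₅₀, mean of ≥3 experiments.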

N=C(N)NCCC[C@@H]1NC(=O)[C@@H](Cc2ccc(O)cc2)NC(=O)CNC(=O)[C@@H](Cc2ccc3ccccc3c2)NC(=O)[C@H](CCCN=C(N)N)NC1=O
IC50: 190 nM
